# Yeast mating assay B: variants of the scFv Ab-14

Source: Li et al. 2023 (doi:10.1038/s41467-023-39022-2), MIT Lincoln Laboratory and A-Alpha Bio; data file from the FLAb repository.

Binding partner: SARS-CoV-2 spike HR2 peptide, sequence PDVDLGDISGINAS.

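The starting antibody came from a phage panning campaign against this peptide. The variants were designed computationally from a first round of random CDR variants and then made and measured. Group labels follow the data file (Ctrl: baseline library sampled from a position-specific scoring matrix, with some repeated check sequences; GPLM: also part of the Gaussian process libraries; Gen: genetic algorithm; a sequence that several methods proposed may carry one label only). The assay is AlphaSeq: two haploid yeast populations carry antibody and antigen on their surface. The frequency of each diploid, read from paired DNA barcodes, reflects how well the two displayed proteins bind. Each replicate has its own calibration line, from reference interactions of the BCL2 family. Mating was done six times.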

Each scFv is VH, three GGGGS repeats, VL, as in the parent Ab-14, and differs from it in the CDRs of the heavy chain only.
VH: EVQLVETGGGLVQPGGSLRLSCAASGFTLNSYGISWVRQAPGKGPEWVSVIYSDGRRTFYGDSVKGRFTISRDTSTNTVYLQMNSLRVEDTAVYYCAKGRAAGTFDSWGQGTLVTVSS
VL: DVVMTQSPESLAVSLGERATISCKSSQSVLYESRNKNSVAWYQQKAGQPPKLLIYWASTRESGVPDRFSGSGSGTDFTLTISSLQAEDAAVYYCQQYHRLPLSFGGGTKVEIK

Positions count from residue 1 of the parent VH; N30E puts E in place of N.
Affinities are written as log10 Kd with Kd in nM; a lower number is a better binder.
"ND" means that the variant was in the library but no mating with the target was seen in that replicate; the authors take this as a sign of poor binding, and no number exists.
A sequence measured in both rounds can read differently, since the two assays cover different ranges.
The authors averaged sequences with at least three values out of six and counted those with two or fewer as poor binders.
As a blank, each scFv also met three strains without target: over all heavy chain designs, 1% of these pairings were detected, typically at 2.08 and seldom below 0.84. The control count says in how many pairings with the empty strains this scFv gave a signal.
Of ten entries with the parent sequence, four were seen in most replicates (averages 0.34 to 2.37), three in one and three in none, so single entries are noisy.
A sequence that the file lists under several names has all its replicates listed entry by entry, parted by semicolons.

With N30E A102S [Ctrl] the result was ND, ND, ND, ND, 3.28, ND (controls 0 of 18).
With G61L T104R [Ctrl] the result was ND, ND, ND, ND, ND, ND (controls 1 of 18).
With N30G G61D F105G [Ctrl] the result was ND, ND, ND, ND, ND, ND (controls 1 of 18).
With G26K S31E [Ctrl] the result was ND, ND, ND, ND, ND, ND (controls 0 of 18).
With T104R [Ctrl] the result was ND, ND, ND, ND, ND, ND (controls 0 of 18).
With S53A G61I A101G A102T [Ctrl] the result was ND, ND, ND, ND, ND, ND (controls 0 of 18).
With G61A K65R R100S F105D [Ctrl] the result was ND, ND, ND, ND, ND, ND (controls 0 of 18).
With T28W I34V G61A A102P T104K D106N S107W [Ctrl] the result was ND, ND, 2.34, 0.55, 1.42, 1.53 (controls 1 of 18).
With T28D Y32H S107V [Ctrl] the result was 0.37, 1.05, ND, 1.27, 1.07, 1.51 (controls 1 of 18).
With N30D F59M G103D F105D [Ctrl] the result was ND, ND, ND, 2.09, ND, ND (controls 0 of 18).
With T28M S53A S107P [Ctrl] the result was ND, ND, ND, ND, ND, ND (controls 1 of 18).
With T28A N30E R100Q T104L [Ctrl] the result was ND, ND, ND, ND, ND, ND (controls 0 of 18).
With G61T S63A R100S A101T F105P [Ctrl] the result was ND, ND, ND, ND, ND, ND (controls 0 of 18).
With S31K F59Q R100P G103K S107Q [Ctrl] the result was ND, ND, ND, ND, ND, ND (controls 0 of 18).
With T28G L29I F59A A102M D106E S107C [Ctrl] the result was ND, ND, ND, 1.60, ND, ND (controls 1 of 18).
With S63F A101I S107W [Ctrl] the result was ND, ND, ND, ND, ND, ND (controls 0 of 18).
With T28A S63A R100Q A102E G103D F105P S107W [Ctrl] the result was ND, ND, ND, ND, ND, ND (controls 0 of 18).
With L29I S31M S53A [Ctrl] the result was 0.81, 0.13, 0.00, 0.11, 0.09, 0.09 (controls 0 of 18).
With A102S G103A [Ctrl] the result was ND, ND, ND, ND, ND, ND (controls 0 of 18).
With G61D G103S T104D S107V [Ctrl] the result was ND, ND, ND, ND, ND, ND (controls 0 of 18).
With I34R T104S [Ctrl] the result was ND, ND, ND, ND, ND, ND (controls 0 of 18).
With T28D G99I A101N [Ctrl] the result was ND, ND, ND, ND, ND, ND (controls 0 of 18).
With G61T R100E A101L [Ctrl] the result was 0.85, 0.48, 0.16, 0.56, 0.36, 0.60 (controls 0 of 18).
With G26M T28N G99T R100D A102H G103Q [Ctrl] the result was ND, ND, ND, ND, ND, ND (controls 0 of 18).
With T28F N30T F59Y G103W [Ctrl] the result was ND, ND, ND, ND, ND, ND (controls 0 of 18).
With S63A G99H A101E A102Q G103A [Ctrl] the result was ND, ND, ND, ND, ND, ND (controls 0 of 18).
With F27N T28H [Ctrl] the result was ND, ND, ND, ND, ND, ND (controls 0 of 18).
With I51D K65P [Ctrl] the result was ND, ND, ND, ND, ND, ND (controls 0 of 18).
With R100Q D106S [Ctrl] the result was ND, ND, ND, ND, 2.72, ND (controls 0 of 18).
With S31Q S63A R100S [Ctrl] the result was 0.13, -0.17, 0.25, 0.26, -0.31, 0.21 (controls 0 of 18).
With F27N A101L D106P [Ctrl] the result was ND, ND, ND, ND, ND, ND (controls 0 of 18).
With T28H A101K A102H [Ctrl] the result was ND, ND, 2.63, ND, ND, 3.07 (controls 0 of 18).
With I34S S107T [Ctrl] the result was ND, ND, ND, ND, ND, ND (controls 0 of 18).
With S31D A101E [Ctrl+GPLM_Gen] the result was ND, 0.17, ND, -0.35, ND, 0.85; -0.12, -0.40, ND, 1.38, 1.17, -0.79 (controls 1 of 36).
With R56K Y60M G61Q [Ctrl] the result was ND, 1.73, ND, ND, 1.43, 2.34 (controls 1 of 18).
With G26L T28E T104L F105P [Ctrl] the result was ND, ND, ND, ND, ND, ND (controls 0 of 18).
With N30D A101E S107Y [Ctrl] the result was 0.93, 0.60, ND, 0.18, 0.82, 1.05 (controls 0 of 18).
With T28S S53A S107D [Ctrl+GPLM_Gen] the result was ND, ND, ND, ND, ND, ND; -0.20, -0.19, 0.01, -0.30, -0.30, -0.24 (controls 1 of 36).

Repeated from above, the 3 best binders with a signal in all replicates:

S31Q S63A R100S [Ctrl]: 0.13, -0.17, 0.25, 0.26, -0.31, 0.21 (controls 0 of 18).
L29I S31M S53A [Ctrl]: 0.81, 0.13, 0.00, 0.11, 0.09, 0.09 (controls 0 of 18).
G61T R100E A101L [Ctrl]: 0.85, 0.48, 0.16, 0.56, 0.36, 0.60 (controls 0 of 18).